# Results taken from PubChem BioAssay AID434973 (Sanford-Burnham Center for Chemical Genomics, 2010).
# Chains of the proteins cited; added tags and fusions are not shown. Residues count along the entry.
# UniProt Q9BQF6, 706-1050 limits assumed: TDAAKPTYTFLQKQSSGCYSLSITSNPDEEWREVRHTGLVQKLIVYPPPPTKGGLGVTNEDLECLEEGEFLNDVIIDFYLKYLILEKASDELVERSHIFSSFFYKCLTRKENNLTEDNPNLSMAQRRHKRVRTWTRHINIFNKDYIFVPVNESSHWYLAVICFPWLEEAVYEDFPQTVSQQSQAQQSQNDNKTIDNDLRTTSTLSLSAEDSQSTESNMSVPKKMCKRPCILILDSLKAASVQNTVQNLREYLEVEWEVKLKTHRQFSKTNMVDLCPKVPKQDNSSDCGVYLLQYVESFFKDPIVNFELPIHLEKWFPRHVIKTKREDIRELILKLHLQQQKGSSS
# Only a part is listed here, and it is no random draw. Activity calls are given as the source filed them.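 How the source made its calls: active means inhibition above about 50% at the single test dose (limit read from the data); inactive means the rest.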
# Molecular target: Sentrin-specific protease 7 (Homo sapiens) (UniProt Q9BQF6)
# Test: blockers of human SENP7 peptidase activity – biochemical, luminescence, uHTS, primary screen (AID 434973);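 further: plate controls were DMSO with enzyme for no effect and no enzyme buffer wells for full effect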
# Conditions: recombinant SENP7, Z-RLRGG-aminoluciferin luminescence, 40 min; at 5 µM; hits give high values
row,SMILES,inhibition
1,CCC(=O)N(c1ccccc1)C1(COC)CCN(CCn2nnn(CC)c2=O)CC1,inactive: -15.9%
2,CCC(=O)N(c1ccccc1)C1(COC)CCN(CCc2cccs2)CC1,inactive: -2.24%
